The numbers were not newly measured in PMC3907177, which cites them from elsewhere.

In this data set the target is STRA6 (Homo sapiens) (UniProt Q9BX79).

In the case of RBP (from UniProt P02753), the Kd is 59 nM.

What is called Kd is the concentration at which binding is half-saturated.
